Source: PubChem BioAssay (EPA / NIEHS)
This is a selection; strong and weak results do not stand in their true shares. Records with an inconclusive call do not appear. Calls of active or inactive are those of the source. How the source made its calls, unless noted: active means hit-call score of the fitted dose curve at least 0.9, where 1 is the maximum; inconclusive means response in the unintended direction; inactive means score below 0.9.

The chains behind the UniProt entries cited, without tags or fusion partners.
UniProt Q07869, whole entry: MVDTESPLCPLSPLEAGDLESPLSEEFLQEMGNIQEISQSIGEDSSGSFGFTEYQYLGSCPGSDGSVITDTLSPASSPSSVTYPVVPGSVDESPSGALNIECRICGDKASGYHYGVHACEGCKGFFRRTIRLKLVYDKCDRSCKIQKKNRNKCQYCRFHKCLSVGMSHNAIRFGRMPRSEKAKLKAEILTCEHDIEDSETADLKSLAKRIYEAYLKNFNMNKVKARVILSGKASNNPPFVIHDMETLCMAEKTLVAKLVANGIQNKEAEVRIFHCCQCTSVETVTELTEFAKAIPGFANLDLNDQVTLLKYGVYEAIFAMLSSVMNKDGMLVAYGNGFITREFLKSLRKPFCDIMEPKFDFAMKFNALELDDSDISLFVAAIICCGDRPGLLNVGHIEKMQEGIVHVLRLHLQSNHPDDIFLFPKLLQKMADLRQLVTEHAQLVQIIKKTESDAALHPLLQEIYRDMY
UniProt Q03181, whole entry: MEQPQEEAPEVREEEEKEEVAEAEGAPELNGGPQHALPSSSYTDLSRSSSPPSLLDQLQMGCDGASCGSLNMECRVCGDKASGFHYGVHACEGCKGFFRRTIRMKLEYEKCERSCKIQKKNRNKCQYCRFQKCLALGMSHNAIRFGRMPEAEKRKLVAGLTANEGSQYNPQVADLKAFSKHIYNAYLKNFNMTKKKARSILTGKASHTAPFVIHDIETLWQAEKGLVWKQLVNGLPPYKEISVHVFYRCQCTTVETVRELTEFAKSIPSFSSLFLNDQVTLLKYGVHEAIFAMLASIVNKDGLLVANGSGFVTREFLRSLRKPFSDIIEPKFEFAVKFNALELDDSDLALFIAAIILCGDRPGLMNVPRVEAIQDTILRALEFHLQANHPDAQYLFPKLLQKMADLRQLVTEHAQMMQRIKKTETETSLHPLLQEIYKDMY
UniProt O75469, whole entry: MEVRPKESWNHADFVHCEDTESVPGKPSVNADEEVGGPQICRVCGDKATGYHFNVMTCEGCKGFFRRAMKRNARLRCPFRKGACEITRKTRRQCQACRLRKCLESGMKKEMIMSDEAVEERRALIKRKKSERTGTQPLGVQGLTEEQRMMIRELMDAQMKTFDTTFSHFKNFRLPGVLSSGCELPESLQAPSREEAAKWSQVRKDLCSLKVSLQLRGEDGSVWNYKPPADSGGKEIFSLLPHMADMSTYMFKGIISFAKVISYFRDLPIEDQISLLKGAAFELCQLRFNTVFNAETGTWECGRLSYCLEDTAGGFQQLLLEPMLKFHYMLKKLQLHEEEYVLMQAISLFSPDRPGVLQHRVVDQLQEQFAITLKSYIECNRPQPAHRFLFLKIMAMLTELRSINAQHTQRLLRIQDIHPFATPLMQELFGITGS
UniProt P13631, whole entry: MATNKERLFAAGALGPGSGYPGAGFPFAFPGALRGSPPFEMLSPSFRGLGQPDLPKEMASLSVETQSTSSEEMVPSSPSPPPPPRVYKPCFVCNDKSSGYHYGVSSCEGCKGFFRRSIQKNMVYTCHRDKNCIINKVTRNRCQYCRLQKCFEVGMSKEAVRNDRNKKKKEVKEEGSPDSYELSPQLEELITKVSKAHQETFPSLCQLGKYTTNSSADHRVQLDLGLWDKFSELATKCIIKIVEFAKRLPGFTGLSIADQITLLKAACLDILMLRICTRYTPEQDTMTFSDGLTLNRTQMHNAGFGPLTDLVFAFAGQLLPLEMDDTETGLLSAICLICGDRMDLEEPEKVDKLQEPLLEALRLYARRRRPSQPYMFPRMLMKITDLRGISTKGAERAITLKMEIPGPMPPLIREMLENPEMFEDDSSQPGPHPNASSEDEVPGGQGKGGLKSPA
UniProt Q92753, whole entry: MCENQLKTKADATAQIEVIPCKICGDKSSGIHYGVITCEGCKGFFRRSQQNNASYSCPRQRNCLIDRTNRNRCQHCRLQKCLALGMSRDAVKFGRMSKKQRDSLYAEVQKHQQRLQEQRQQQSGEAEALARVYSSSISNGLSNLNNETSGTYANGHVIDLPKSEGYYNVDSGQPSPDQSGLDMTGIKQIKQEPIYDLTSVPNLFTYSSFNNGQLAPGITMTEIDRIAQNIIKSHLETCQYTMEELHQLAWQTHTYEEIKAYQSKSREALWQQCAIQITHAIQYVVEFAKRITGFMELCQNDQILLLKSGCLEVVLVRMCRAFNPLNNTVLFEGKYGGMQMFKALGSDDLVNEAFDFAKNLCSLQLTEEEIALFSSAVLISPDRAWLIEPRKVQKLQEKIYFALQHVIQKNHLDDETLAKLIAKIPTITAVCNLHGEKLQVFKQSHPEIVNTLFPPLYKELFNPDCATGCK
UniProt P51449, whole entry: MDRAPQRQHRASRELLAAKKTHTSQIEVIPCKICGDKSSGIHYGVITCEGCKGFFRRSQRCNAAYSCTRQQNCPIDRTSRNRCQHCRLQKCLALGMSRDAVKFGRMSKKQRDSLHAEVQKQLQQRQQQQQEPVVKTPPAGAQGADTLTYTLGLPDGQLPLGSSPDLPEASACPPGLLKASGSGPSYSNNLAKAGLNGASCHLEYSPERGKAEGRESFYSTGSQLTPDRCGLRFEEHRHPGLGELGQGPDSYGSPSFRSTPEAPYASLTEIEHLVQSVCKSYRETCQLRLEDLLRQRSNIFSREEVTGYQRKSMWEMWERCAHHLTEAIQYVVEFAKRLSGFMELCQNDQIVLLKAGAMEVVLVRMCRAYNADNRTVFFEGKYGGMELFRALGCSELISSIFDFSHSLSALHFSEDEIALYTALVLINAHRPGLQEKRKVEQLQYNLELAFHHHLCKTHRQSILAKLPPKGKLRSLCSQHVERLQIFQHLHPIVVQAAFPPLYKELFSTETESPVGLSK
UniProt P10827, whole entry: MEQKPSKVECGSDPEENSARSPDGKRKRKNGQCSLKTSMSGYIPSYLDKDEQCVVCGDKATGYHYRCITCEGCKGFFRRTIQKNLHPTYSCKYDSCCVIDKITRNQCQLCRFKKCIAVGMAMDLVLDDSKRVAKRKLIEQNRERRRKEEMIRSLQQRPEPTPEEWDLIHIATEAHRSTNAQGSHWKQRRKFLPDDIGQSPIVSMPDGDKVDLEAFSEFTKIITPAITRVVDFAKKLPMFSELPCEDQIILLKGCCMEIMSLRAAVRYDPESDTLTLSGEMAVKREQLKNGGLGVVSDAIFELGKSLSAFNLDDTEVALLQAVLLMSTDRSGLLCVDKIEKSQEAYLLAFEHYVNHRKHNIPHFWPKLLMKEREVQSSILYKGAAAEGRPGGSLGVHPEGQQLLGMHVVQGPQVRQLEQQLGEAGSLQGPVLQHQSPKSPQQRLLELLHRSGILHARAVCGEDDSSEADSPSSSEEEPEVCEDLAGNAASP
UniProt P16581, whole entry: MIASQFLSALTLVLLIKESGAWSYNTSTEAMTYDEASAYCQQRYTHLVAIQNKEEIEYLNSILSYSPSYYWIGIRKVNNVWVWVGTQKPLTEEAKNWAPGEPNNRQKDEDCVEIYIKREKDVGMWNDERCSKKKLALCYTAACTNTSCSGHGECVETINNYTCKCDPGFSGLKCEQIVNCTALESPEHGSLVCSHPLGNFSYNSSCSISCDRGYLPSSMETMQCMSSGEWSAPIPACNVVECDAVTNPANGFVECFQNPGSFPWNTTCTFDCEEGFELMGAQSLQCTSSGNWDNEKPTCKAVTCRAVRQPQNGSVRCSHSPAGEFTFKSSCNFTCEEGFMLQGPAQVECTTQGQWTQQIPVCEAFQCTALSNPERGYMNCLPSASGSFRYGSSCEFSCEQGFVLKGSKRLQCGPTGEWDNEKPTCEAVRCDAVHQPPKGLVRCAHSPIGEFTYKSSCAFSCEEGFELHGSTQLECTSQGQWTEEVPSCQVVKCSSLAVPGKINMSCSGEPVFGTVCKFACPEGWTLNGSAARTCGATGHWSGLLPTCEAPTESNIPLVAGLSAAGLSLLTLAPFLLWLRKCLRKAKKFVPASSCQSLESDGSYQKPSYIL
UniProt P10826, whole entry: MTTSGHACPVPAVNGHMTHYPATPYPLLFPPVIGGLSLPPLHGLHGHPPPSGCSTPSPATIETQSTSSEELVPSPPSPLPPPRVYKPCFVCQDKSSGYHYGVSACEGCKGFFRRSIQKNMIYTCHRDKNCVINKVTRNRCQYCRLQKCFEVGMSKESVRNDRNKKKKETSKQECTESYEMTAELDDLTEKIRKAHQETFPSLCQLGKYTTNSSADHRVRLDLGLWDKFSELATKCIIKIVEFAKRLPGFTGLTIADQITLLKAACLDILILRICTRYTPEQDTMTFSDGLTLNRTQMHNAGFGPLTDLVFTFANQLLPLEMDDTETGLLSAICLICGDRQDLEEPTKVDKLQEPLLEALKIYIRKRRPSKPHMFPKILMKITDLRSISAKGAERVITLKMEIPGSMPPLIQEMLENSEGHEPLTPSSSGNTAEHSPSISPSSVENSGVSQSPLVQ
UniProt P10276, whole entry: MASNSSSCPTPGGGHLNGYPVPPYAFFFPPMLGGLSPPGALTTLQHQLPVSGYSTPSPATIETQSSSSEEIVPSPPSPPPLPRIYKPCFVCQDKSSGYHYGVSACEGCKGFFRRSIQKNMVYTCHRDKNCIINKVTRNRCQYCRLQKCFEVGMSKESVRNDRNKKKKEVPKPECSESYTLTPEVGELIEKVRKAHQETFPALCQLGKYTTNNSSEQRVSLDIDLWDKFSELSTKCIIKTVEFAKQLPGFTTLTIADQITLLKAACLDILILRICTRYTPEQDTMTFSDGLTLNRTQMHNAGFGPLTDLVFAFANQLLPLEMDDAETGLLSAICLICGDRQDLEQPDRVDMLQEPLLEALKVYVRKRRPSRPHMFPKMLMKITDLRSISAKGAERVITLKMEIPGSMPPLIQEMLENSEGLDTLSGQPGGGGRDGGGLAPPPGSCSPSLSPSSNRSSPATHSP
UniProt P37231, whole entry: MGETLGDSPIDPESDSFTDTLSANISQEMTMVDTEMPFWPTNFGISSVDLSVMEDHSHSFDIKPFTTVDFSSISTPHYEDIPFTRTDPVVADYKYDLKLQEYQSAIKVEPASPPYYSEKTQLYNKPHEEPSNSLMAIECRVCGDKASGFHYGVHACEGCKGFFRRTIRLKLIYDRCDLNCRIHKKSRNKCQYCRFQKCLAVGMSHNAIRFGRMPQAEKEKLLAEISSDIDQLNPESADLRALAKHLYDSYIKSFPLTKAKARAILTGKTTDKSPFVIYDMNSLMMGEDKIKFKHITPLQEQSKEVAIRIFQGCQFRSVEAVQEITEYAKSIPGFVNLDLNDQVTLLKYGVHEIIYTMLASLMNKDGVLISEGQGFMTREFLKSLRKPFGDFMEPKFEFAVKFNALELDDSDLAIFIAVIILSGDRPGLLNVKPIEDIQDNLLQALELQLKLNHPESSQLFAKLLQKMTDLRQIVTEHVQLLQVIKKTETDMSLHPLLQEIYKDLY
UniProt P19793, whole entry: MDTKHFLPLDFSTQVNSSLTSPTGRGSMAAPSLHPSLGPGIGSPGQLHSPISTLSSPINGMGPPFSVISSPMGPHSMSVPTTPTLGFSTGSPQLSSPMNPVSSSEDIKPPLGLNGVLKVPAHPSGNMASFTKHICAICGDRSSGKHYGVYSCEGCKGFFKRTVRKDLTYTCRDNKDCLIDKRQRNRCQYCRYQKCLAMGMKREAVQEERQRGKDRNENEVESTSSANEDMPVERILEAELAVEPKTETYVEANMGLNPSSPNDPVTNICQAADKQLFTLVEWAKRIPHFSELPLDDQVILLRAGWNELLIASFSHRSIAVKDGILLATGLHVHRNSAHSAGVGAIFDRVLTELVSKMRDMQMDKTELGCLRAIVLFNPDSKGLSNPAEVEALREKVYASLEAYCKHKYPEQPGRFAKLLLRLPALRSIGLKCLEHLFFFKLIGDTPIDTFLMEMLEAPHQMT

Experiments:
[1] = BSK_4H_Eotaxin3: BioMAP Diversity Plus: 4H Assay for Eotaxin 3 Biomarker Activity (AID 2283000; active means hit-call score of the fitted dose curve at least 0.9, where 1 is the maximum; inactive means score below 0.9;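 further: CCL26 protein level quantified by ELISA in parallel with SRB cytotoxicity check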); settings: actives raise or lower the signal; primary human endothelial cells (HUVEC)
Method in brief: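 HUVEC, 24 h post-dose, ELISA for Eotaxin-3/CCL26. Gain or loss of signal fitted bidirectionally vs DMSO baseline.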

[2] = target: human Peroxisome Proliferator-activated Receptor alpha (PPARa), PPARA (gene 5465) (UniProt Q07869); experiment: ATG_PPARa_TRANS: Attagene TRANS-FACTORIAL HepG2 Assay for human Peroxisome Proliferator-activated Receptor alpha (PPARa) (AID 2283001)
Method in brief: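 Gain-of-signal endpoint: reporter mRNA induction relative to DMSO, detected by fluorescent RT-PCR and capillary electrophoresis. HepG2 cells transiently carried GAL4-UAS-driven reporter units plus NR-Gal4 fusion; exposure lasted 24 h.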

[3] = target: human Peroxisome Proliferator-activated Receptor delta (PPARd), PPARD (gene 5467) (UniProt Q03181); experiment: ATG_PPARd_TRANS: Attagene TRANS-FACTORIAL HepG2 Assay for human Peroxisome Proliferator-activated Receptor delta (PPARd) (AID 2283002)
Method in brief: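 Multiplexed trans-activation format: HepG2 liver cells expressing exogenous NR-Gal4 chimeras and GAL4-UAS reporters were exposed for 24 h. Reporter mRNA was detected by RT-PCR with capillary electrophoresis fluorescence; activity fitted as gain of signal relative to DMSO.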

[4] = read-out: Intercellular Adhesion Molecule 1 (ICAM1), ICAM1 (gene 3383); experiment: BSK_3C_ICAM1: BioMAP Diversity Plus: 3C Assay for Intercellular Adhesion Molecule 1 (ICAM1) Biomarker Activity (AID 2283003; active means hit-call score of the fitted dose curve at least 0.9, where 1 is the maximum; inactive means score below 0.9); settings: actives raise or lower the signal; primary human endothelial cells (HUVEC)
Method in brief: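 ICAM-1 levels measured by ELISA after HUVEC cultures in the 3C system had been dosed for 24 h. Gain or loss of signal relative to DMSO was fitted in both directions.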

[5] = BSK_3C_Proliferation: Cell Proliferation Assessment in the BioMAP Diversity Plus: 3C Assay (AID 2283006; active means hit-call score of the fitted dose curve at least 0.9, where 1 is the maximum; inactive means score below 0.9;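 on AC50: potency may reflect either rise or fall in cell number versus DMSO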); settings: primary human endothelial cells (HUVEC)
Method in brief: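 Read-out is total protein by SRB absorbance at 560 nm, taken as a proxy for relative cell number. Primary human umbilical vein endothelium cultured below confluence was dosed for 48 h, TCA-fixed and SRB-stained; curves were fitted bidirectionally versus DMSO.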

[6] = target: Nuclear receptor subfamily 1 group I member 2 (Homo sapiens) (UniProt O75469); experiment: ATG_PXR_TRANS: Attagene TRANS-FACTORIAL HepG2 Assay for human Pregnane X Receptor (PXR) (AID 2283008)
Method in brief: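 Read-out is fluorescence of labelled reporter cDNA fragments separated by capillary electrophoresis after RT-PCR and HpaI digestion. Source: HepG2 cells carrying PXR-GAL4/UAS reporter constructs, treated 24 h; activity fitted upward relative to DMSO.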

[7] = target: human Retinoic Acid Receptor gamma (RARg), RARG (gene 5916) (UniProt P13631); experiment: ATG_RARg_TRANS: Attagene TRANS-FACTORIAL HepG2 Assay for human Retinoic Acid Receptor gamma (RARg) (AID 2283009)
Method in brief: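 Transient transfection of HepG2 with multi-reporter constructs, then 24 h chemical treatment. Total RNA isolated, reverse-transcribed, PCR-amplified, fluorescently labelled and resolved by capillary electrophoresis; activity scored as mRNA induction versus DMSO.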

[8] = target: human RAR-related Orphan Receptor beta (RORb), RORB (gene 6096) (UniProt Q92753); experiment: ATG_RORb_TRANS: Attagene TRANS-FACTORIAL HepG2 Assay for human RAR-related Orphan Receptor beta (RORb) (AID 2283010)
Method in brief: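 Readout is reporter-gene mRNA induction, detected as fluorescence after RT-PCR and capillary electrophoresis, fitted for gain of signal against DMSO controls. Transiently transfected HepG2 liver cells carrying GAL4-UAS reporter constructs were treated for 24 hours.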

[9] = target: human RAR-related Orphan Receptor gamma (RORg), RORC (gene 6097) (UniProt P51449); experiment: ATG_RORg_TRANS: Attagene TRANS-FACTORIAL HepG2 Assay for human RAR-related Orphan Receptor gamma (RORg) (AID 2283011)
Method in brief: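 Readout: reporter transcript induction (RT-PCR, fluorescent primer extension, capillary electrophoresis) after 24 h compound exposure of transiently transfected HepG2 cells carrying a RORg-Gal4 chimera and GAL4-UAS reporters; DMSO served as baseline, with increasing signal fitted.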

[10] = target: human Thyroid Receptor alpha (THRa1), THRA (gene 7067) (UniProt P10827); experiment: ATG_THRa1_TRANS: Attagene TRANS-FACTORIAL HepG2 Assay for human Thyroid Receptor alpha (THRa1) (AID 2283014)
Method in brief: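 HepG2 cells transiently transfected with multiplexed GAL4-UAS reporter units for exogenous chimeric THRa1-Gal4; reporter mRNA measured 24 h after dosing by RT-PCR, 6-FAM labelling, HpaI digestion and capillary electrophoresis. Gain-of-signal fitted versus DMSO baseline.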

[11] = read-out: E-selectin (Homo sapiens) (UniProt P16581); experiment: BSK_3C_Eselectin: BioMAP Diversity Plus: 3C Assay for Eselectin Biomarker Activity (AID 2283015; active means hit-call score of the fitted dose curve at least 0.9, where 1 is the maximum; inactive means score below 0.9;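 further: cell surface E-selectin protein quantified by ELISA 24 h after dosing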); settings: actives raise or lower the signal; primary human endothelial cells (HUVEC)
Method in brief: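 Primary human umbilical vein endothelial cells (3C system) were dosed with chemical and cell-surface E-selectin measured by ELISA 24 h later. Bidirectional curve fitting used DMSO as negative control and baseline.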

[12] = read-out: Interleukin-1 alpha (IL1a), IL1A (gene 3552); experiment: BSK_BE3C_IL1a: BioMAP Diversity Plus: BE3C Assay for Interleukin-1 alpha (IL1a) Biomarker Activity (AID 2283016; active means hit-call score of the fitted dose curve at least 0.9, where 1 is the maximum; inactive means score below 0.9); settings: actives raise or lower the signal; primary human bronchial epithelial cells
Method in brief: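 BE3C primary human bronchial epithelium; cpd 24 h; IL-1a by ELISA; bidirectional fit vs DMSO; parallel SRB (0.1% SRB, 10% TCA fix, 560 nm) for cytotoxicity.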

[13] = read-out: Monocyte Chemoattractant Protein-1 (MCP1), CCL2 (gene 6347); experiment: BSK_3C_MCP1: BioMAP Diversity Plus: 3C Assay for Monocyte Chemoattractant Protein-1 (MCP1) Biomarker Activity (AID 2283017; active means hit-call score of the fitted dose curve at least 0.9, where 1 is the maximum; inactive means score below 0.9); settings: actives raise or lower the signal; primary human endothelial cells (HUVEC)
Method in brief: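 Primary human umbilical vein endothelial cells (3C system) were exposed to test chemical for 24 h, after which MCP-1 was quantified by ELISA. Activity was fitted bidirectionally against DMSO as negative control and baseline.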

[14] = read-out: Monocyte Chemoattractant Protein-1 (MCP1), CCL2 (gene 6347); experiment: BSK_4H_MCP1: BioMAP Diversity Plus: 4H Assay for Monocyte Chemoattractant Protein-1 (MCP1) Biomarker Activity (AID 2283018; active means hit-call score of the fitted dose curve at least 0.9, where 1 is the maximum; inactive means score below 0.9); settings: actives raise or lower the signal; primary human endothelial cells (HUVEC)
Method in brief: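 ELISA read-out of MCP-1 from human vascular endothelial primary cells taken at 24 hours after compound exposure. Activity was fitted in both directions relative to DMSO, which served as negative control.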

[15] = read-out: Human Leukocyte Antigen - DR isotype (HLADR), HLA-DRA (gene 3122); experiment: BSK_3C_HLADR: BioMAP Diversity Plus: 3C Assay for Human Leukocyte Antigen - DR isotype (HLADR) Biomarker Activity (AID 2283019; active means hit-call score of the fitted dose curve at least 0.9, where 1 is the maximum; inactive means score below 0.9;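 on outcome: ELISA of cell-surface HLA-DR on HUVEC 24 h after dosing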); settings: actives raise or lower the signal; primary human endothelial cells (HUVEC)
Method in brief: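 Primary human umbilical vein endothelial cells (3C system) were dosed with compound and cell-surface HLA-DR was quantified by ELISA at 24 h. Activity was fitted bidirectionally against DMSO as negative control and baseline.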

[16] = read-out: Interleukin-8 (IL8), CXCL8 (gene 3576); experiment: BSK_3C_IL8: BioMAP Diversity Plus: 3C Assay for Interleukin-8 (IL8) Biomarker Activity (AID 2283020; active means hit-call score of the fitted dose curve at least 0.9, where 1 is the maximum; inactive means score below 0.9); settings: actives raise or lower the signal; primary human endothelial cells (HUVEC)
Method in brief: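 ELISA read-out of IL-8 from human umbilical vein endothelium, measured 24 h after chemical dosing. Activity is expressed relative to DMSO negative control, with both increases and decreases fitted.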

[17] = target: human Retinoic Acid Receptor beta (RARb), RARB (gene 5915) (UniProt P10826); experiment: ATG_RARb_TRANS: Attagene TRANS-FACTORIAL HepG2 Assay for human Retinoic Acid Receptor beta (AID 2283004)
Method in brief: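 HepG2 cells transiently transfected with multiplexed GAL4-UAS reporter units expressing chimeric NR–Gal4 fusions; 24 h compound exposure. Reporter mRNA quantified by RT-PCR, 6-FAM labelling, HpaI digestion and capillary electrophoresis; gain-of-signal fitted against DMSO baseline.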

[18] = target: Retinoic acid receptor alpha (Homo sapiens) (UniProt P10276); experiment: ATG_RARa_TRANS: Attagene TRANS-FACTORIAL HepG2 Assay for human Retinoic Acid Receptor alpha (RARa) (AID 2283005)
Method in brief: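 HepG2 cells transiently transfected with multiple reporter units expressing chimeric RARα-GAL4 fusion, with GAL4-UAS-driven reporters. After 24 h compound exposure, reporter mRNA induction quantified by RT-PCR and capillary electrophoresis with fluorescent labeling; gain-of-signal fitted relative to DMSO control.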

[19] = target: Peroxisome proliferator-activated receptor gamma (Homo sapiens) (UniProt P37231); experiment: ATG_PPARg_TRANS: Attagene TRANS-FACTORIAL HepG2 Assay for human Peroxisome Proliferator-activated Receptor-gamma (PPARg) (AID 2283007)
Method in brief: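 Chimeric NR-Gal4 transactivation is measured in transiently transfected HepG2 cells by reporter mRNA induction at 24 h. Detection uses RT-PCR with fluorescent labelling and capillary electrophoresis; DMSO defines baseline.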

[20] = target: Retinoic acid receptor RXR-alpha (Homo sapiens) (UniProt P19793); experiment: ATG_RXRa_TRANS: Attagene TRANS-FACTORIAL HepG2 Assay for human Retinoid X Receptor alpha (RXRa) (AID 2283012)
Method in brief: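 Transient transfection of human HepG2 with multiple GAL4-UAS reporter constructs; 24 h compound exposure; total RNA isolated, reverse-transcribed, PCR-amplified, 6-FAM labelled, HpaI-cut, resolved by capillary electrophoresis. Positive-direction fit versus DMSO.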

With `O=[N+]([O-])c1ccccc1[N+](=O)[O-]` the outcome [1] was “inactive”, the outcome [2] was “inactive” and the outcome [3] was “inactive”. For the same compound, the outcome [4] was “inactive”, the AC50 [5] was active: 3.97 µM and the outcome [6] was “inactive”. The outcome [7] was “inactive”, the outcome [8] was “inactive” and the outcome [9] was “inactive”. For the same compound, the outcome [10] was “inactive”, the outcome [11] was “inactive” and the outcome [12] was “inactive”. The outcome [13] was “inactive”, the outcome [14] was “inactive” and the AC50 [15] was active: 27.2 µM. The outcome [16] was “inactive”.
With `ClCCNCCCl` the outcome [3] was “inactive”, the outcome [17] was “inactive” and the outcome [18] was “inactive”. The outcome [19] was “inactive”, the outcome [7] was “inactive” and the outcome [8] was “inactive”. For the same compound, the outcome [9] was “inactive” and the outcome [10] was “inactive”.
With `CCOP(=O)(Cl)Cl` the outcome [2] was “inactive”, the outcome [8] was “inactive” and the outcome [9] was “inactive”.
For `ClCCOP(OCCCl)OCCCl`, the outcome [17] was “inactive”, the outcome [6] was “inactive” and the outcome [8] was “inactive”. The outcome [20] was “inactive”.
In the case of `CC(C)OP(OC(C)C)OC(C)C`, the outcome [1] is reported as “inactive”, the outcome [2] is reported as “inactive” and the outcome [3] is reported as “inactive”. For the same compound, the outcome [4] was “inactive”, the outcome [18] was “inactive” and the outcome [5] was “inactive”. For the same compound, the outcome [19] was “inactive”, the outcome [6] was “inactive” and the outcome [7] was “inactive”. The outcome [20] was “inactive”, the outcome [10] was “inactive” and the outcome [11] was “inactive”. For the same compound, the outcome [12] was “inactive”, the outcome [13] was “inactive” and the outcome [14] was “inactive”. The outcome [15] was “inactive” and the outcome [16] was “inactive”.
